Rango complex inh = Rango-importin beta binding inhibition; Potency, µM (doses to about 92.2 µM), without a hit: at the highest dose inhibition of complex formation; hit rate 0.031% among 340,000; AID 540263; Rango CFP/YFP FRET sensor + importin beta, 45 min;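 also: 0% = DMSO wells and 100% = buffer wells lacking importin beta; nearly all actives have a fitted effect of over 15% in size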
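FRET biosensor (snurportin 1 IBB flanked by EYFP and cerulean), 50 nM, with compound 5 min, then 0.125 microM importin beta in PBS, 1 mM DTT, 0.02% Tween-20, 0.1% BSA. CFP/YFP ratio read after 45 min at room temperature; pre-read flags interference.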
Rango dissoc inh = inhibition of RanGTP-driven Rango-importin beta dissociation; Biochemical FRET Rango-importin beta, RanGTP-induced dissociation; hit rate 0.071% among 340,000; Potency, µM (highest dose often 46.1 µM), without a hit: at the top dose activity change, negative = inhibition; also: % of control where 0% means no effect; nearly all actives have a fitted effect of over 45% in size
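Rango FRET biosensor (snurportin-1 IBB flanked by N-terminal EYFP and C-terminal CFP10) at 0.1 uM, with 0.25 uM importin beta in PBS, 1mM DTT, 0.02% Tween-20, 0.1% BSA. 0.6 uM Ran, 2mM GTP and 0.2 uM RCC1 were then added for 45 min at room temperature. Inhibition read as loss of FRET rise.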
gsp ag = gsp mutant agonism; Potency, µM (series often up to 76.9 µM), inactives show at the top dose activation (cAMP increase), usual class: activators; gsp mutant cells, cAMP HTRF, 30 min; hit rate 0.13% among 340,000; active = well fitted activation curve with a large enough effect; inconclusive = small, poorly fitted or top-dose-only effect, or another doubt; inactive = no such curve, though single readings can be large or run the other way; cell line not stated here;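 also: phosphodiesterase inhibitor Ro 20-1724 added with compounds to block cAMP breakdown; nearly all actives have a fitted effect of over 60% in size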
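Cells in DMEM/10% FBS with G418 were pretreated with compounds in DMSO plus […] (300 uM stock) for 30 min at 37C. cAMP was measured by HTRF (cAMP-d2 plus anti-cAMP antibody-K) after 30 min at room temperature.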
gsp antag = antagonizes gsp, the McCune-Albright syndrome mutation; gsp-mutant cells, cAMP HTRF, 30 min; Potency, µM (doses to about 76.9 µM), for the others: at the top dose activity change, negative = inhibition, hits mostly inhibitors; hit rate 0.4% among 340,000; AID 624288; calls by dose curve; cell line not stated here;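 also: intracellular cAMP measured with PDE inhibitor Ro 20-1724 present during compound exposure; % is scaled to controls: 0 for no effect and ±100 for the full control effect; nearly all actives have a fitted effect of over 65% in size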
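Measurement of cellular cAMP by homogeneous time-resolved fluorescence following a 30 min compound exposure at 37C. The PDE inhibitor […] was present throughout; the assay buffer was DPBS with 0.05% BSA and 0.005% Tween 20.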
* = called active by the depositor; ? = inconclusive; nt = not tested or not shown; [ ] = another dose, or the depositor's remark. Shown are actives, neighbours in structure and some others; about 0.66% of the full set was active somewhere. Unless noted, calls follow the shape of the full dose curve. Potency is read from the fitted curve at half-maximal effect.

item | SMILES | Rango complex inh | Rango dissoc inh | gsp ag | gsp antag
1 | COc1ccc(C2=CCCCCC2)cc1OC | nt | nt | 10% | nt
2 | O=C(c1ccc(N2CCN(C(=O)c3cccc(F)c3)CC2)cc1)c1cccc(F)c1 | ? | 10% | 3% | 32µM*
3 | CC1C(=O)N(Cc2cn(CCC3OCCCO3)nn2)CCS(=O)(=O)N1Cc1ccc(-c2ccc(Cl)c(Cl)c2)cc1 (stereo not drawn) | nt | nt | 6% | nt
4 | Cc1cc2ncn(/N=C/c3ccc([N+](=O)[O-])o3)c2cc1C | 58µM* | 0% | 16% | 3%
5 | Cc1ccccc1OCCC(=O)OCC(=O)c1c(N)n(CC(C)C)c(=O)n(C)c1=O | 4% | 9% | -2%[15.4 µM] | 32µM*
6 | Cc1ccc(OCCC(=O)OCC(=O)c2c(N)n(CC(C)C)c(=O)n(C)c2=O)cc1 | 2% | 7% | 26% | -34%
7 | CC(C)Cn1c(N)c(C(=O)COC(=O)/C=C/c2ccccc2)c(=O)n(C)c1=O | -1% | -10% | 4%[15.4 µM] | 35µM*
8 | CC(C)Cn1c(N)c(C(=O)COC(=O)c2ccc(Br)cc2)c(=O)n(C)c1=O | 0% | 10% | ? | 35µM*
9 | CC(C)Cn1c(N)c(C(=O)COC(=O)[C@@H]2CCCN2C(=O)c2cccs2)c(=O)n(C)c1=O | 0% | -3% | 13µM* | -7%
10 | COc1ccc(NC(C)=O)cc1S(=O)(=O)NCc1ccc2c(c1)OCO2 | nt | nt | -7% | nt
11 | COc1cccc(S(=O)(=O)N(C)C[C@@H]2OCc3cn(nn3)CCCC(=O)N([C@@H](C)CO)C[C@H]2C)c1 | nt | nt | -79% | nt
12 | Cc1onc(-c2ccccc2)c1C(=O)Nc1ccccc1NC(=O)c1c(-c2ccccc2)noc1C | 7% | 7% | -2%[15.4 µM] | 12%

Continuation.
item | SMILES | Rango complex inh | Rango dissoc inh | gsp ag | gsp antag
13 | CCCOc1ccccc1NC(=O)c1c(-c2ccccc2)noc1C | 58µM* | 3% | -23% | ?
14 | COc1ccc(CCNC(=O)c2ccc(CS(=O)(=O)c3ccc(C)cc3)o2)cc1OC | 0% | 20% | ? | -20%
15 | COc1ccc(NC(=O)c2ccc(-c3ccc([N+](=O)[O-])cc3)o2)cc1OC | -1% | 4% | 8% | 35µM*
16 | COc1ccc(CCNC(=O)c2ccc(CS(=O)(=O)c3ccc(Cl)cc3)o2)cc1OC | 1% | 9% | -21% | 40µM*
17 | COc1ccc(CCNC(=O)c2ccc(N(C)S(=O)(=O)c3ccc(C)cc3)cc2)cc1OC | -10% | 11% | 6% | 28µM*
18 | COc1ccc(CCNC(=O)COc2ccc(N(C)S(=O)(=O)c3ccc(C)cc3)cc2)cc1OC | 1% | 4% | ? | ?
19 | COc1ccc(CCNC(=O)c2ccc(-c3ccc([N+](=O)[O-])cc3Cl)o2)cc1OC | 0% | -3% | -36% | 32µM*
20 | Nc1nc(N)c2cc(S(=O)(=O)c3ccc4ccccc4c3)ccc2n1 | nt | nt | 27% | nt
21 | N#Cc1cnc2nc1NCCCCCCC2 | nt | nt | -1% | nt
22 | CCOC(=O)c1c(NC(=O)C(C)OC(=O)C2=COCCO2)sc2c1CCCC2 (stereo not drawn) | 1% | -2% | -16% | 22µM*
23 | CCOC(=O)c1c(NC(=O)c2ccc(-n3cnnn3)cc2)sc2c1CCCC2 | -7% | 21µM* | 25% | -14%
24 | CCOC(=O)c1c(NC(=O)C(C)OC(=O)c2ccc(NC(=O)CC#N)cc2)sc2c1CCCC2 (stereo not drawn) | ? | -20% | 4% | -15%

(next part)
item | SMILES | Rango complex inh | Rango dissoc inh | gsp ag | gsp antag
25 | CC(=O)c1ccc(NS(=O)(=O)c2cccc3cccnc23)cc1 | nt | nt | -61% | nt
26 | CCOC(=O)c1c(NC(=O)COc2cccc3c2CCN(C)C3=O)sc2c1CCC2 | 0% | -16% | -40% | 14µM*
27 | CCNC(=S)N1CCN(c2nc(CC)nc3sc4c(c23)CCCC4)CC1 | 0% | -8% | -2%[15.4 µM] | 25µM*
28 | Cc1cc(O)c(CN(C)C)c2c1C(=O)/C(=C/c1ccco1)O2 | ? | 26µM* | ? | -17%
29 | COc1ccc2c(c1)O/C(=C\c1ccco1)C2=O | ? | ? | 8%[15.4 µM] | -29%
30 | COc1ccc(C(=O)NCC(=O)OCC(=O)NC(=O)c2ccc(C(C)(C)C)cc2)cc1OC | -1% | 4% | 0% | 50µM*
31 | COc1ccc(C(=O)NCC(=O)n2nc(C)cc2C)cc1OC | 3% | -1% | 10µM* | 9%
32 | CC1CC(=O)N(CC(=O)NC2CCCCC2)c2ccccc2S1 (stereo not drawn) | 0% | -9% | 9% | 9%
33 | O=C(CN1C(=O)CC(c2ccco2)Sc2ccccc21)NC1CCCCC1 (stereo not drawn) | 0% | -14% | 8% | 50µM*
34 | Nc1ccc2c3c(ccc([N+](=O)[O-])c13)CC2 | nt | nt | 22% | nt
35 | COc1ccc(CCNc2nc(-c3ccc(O)cc3)cs2)cc1OC | 0% | -10% | 7% | 35µM*
36 | COc1ccc(CCNc2nc(-c3ccncc3)cs2)cc1OC | -2% | 11% | -2% | -15%

New compounds follow:
item | SMILES | Rango complex inh | Rango dissoc inh | gsp ag | gsp antag
37 | C[C@H](CO)N1C[C@H](C)[C@H](CN(C)S(C)(=O)=O)OCc2cnnn2CCCC1=O | nt | nt | -7% | nt
38 | Cn1c(N)c(C(=O)CSc2nc(N)cc(=O)[nH]2)c(=O)n(C)c1=O | -7% | -4% | 17% | 6%
39 | Cc1cc(=O)[nH]c(SCC(=O)c2c(N)n(C)c(=O)n(C)c2=O)n1 | 0% | 18% | 25µM* | 36%
40 | CN(C)C(=S)N=c1ssc(=S)n1Cc1cccnc1 | 3% | -2% | -10% | 8%
41 | O=C1C=C(C#Cc2ccccc2)C[C@@H](c2ccc(F)cc2)C1 | nt | nt | 19% | nt
42 | NC(=O)c1ccc(NC(=O)CN2C(=O)NC3(CCCCCCC3)C2=O)cc1 | 2.1µM* | -13% | -4% | 7%
43 | Cc1ccc(NC(=O)c2ccc(F)c(S(=O)(=O)N3CCOCC3)c2)cc1F | 2% | 7% | -46% | 35µM*
44 | O=C(Nc1ccccc1)c1ccc(F)c(S(=O)(=O)N2CCOCC2)c1 | -1% | -17% | 4% | -30%
45 | Cc1cc(C)c(NC(=O)C2CCN(S(C)(=O)=O)CC2)c(C)c1 | nt | nt | 5% | nt
46 | CN(C)c1ccc(NC(=O)C2C3C=CC(C3)C2C(=O)O)cc1 (stereo not drawn) | 3% | 16% | -110% | 28µM*
47 | Cc1ccc(NC(=O)c2ccccc2)cc1 | 1% | -5% | 26% | 4%
48 | Cc1ccc(NC(=O)C2=C(c3ccccc3)S(=O)(=O)CCS2(=O)=O)cc1 | 1% | 25% | -28%[15.4 µM] | 28µM*

(next part)
item | SMILES | Rango complex inh | Rango dissoc inh | gsp ag | gsp antag
49 | C[C@@H]1CN([C@@H](C)CO)C(=O)CCCn2nncc2CO[C@H]1CN(C)Cc1ccc2cccnc2c1 | nt | nt | 0% | nt
50 | Cc1nn(C)c(C)c1CN(C)S(=O)(=O)c1ccc2ccccc2c1 | ? | ? | 9% | 14µM*
51 | CCCNS(=O)(=O)c1cc(CN2C(=O)c3cccnc3C2=O)ccc1OC | 1% | -1% | 32µM* | 3%
52 | COc1ccc(CN2C(=O)c3cccnc3C2=O)cc1S(=O)(=O)NC(C)C | 2% | 5% | 22µM* | 20%
53 | COc1ccc(CNS(=O)(=O)c2cc(CN3C(=O)c4cccnc4C3=O)ccc2OC)cc1 | -1% | -5% | 11µM* | 15%
54 | COc1ccc(CN2C(=O)c3cccnc3C2=O)cc1S(=O)(=O)N1CCCCC1C (stereo not drawn) | 1% | 12% | 7.1µM* | 29%
55 | O=C(NCc1ccc(F)cc1)N1[C@H]2CC[C@@H]1C=C(c1ccc(F)cc1OCc1ccccc1)C2 | nt | nt | 6% | nt

Some of these compounds in order of their number in Rango dissoc inh, ascending.
entry | Molecule | Rango dissoc inh
53 | COc1ccc(CNS(=O)(=O)c2cc(CN3C(=O)c4cccnc4C3=O)ccc2OC)cc1 | -5%
51 | CCCNS(=O)(=O)c1cc(CN2C(=O)c3cccnc3C2=O)ccc1OC | -1%
52 | COc1ccc(CN2C(=O)c3cccnc3C2=O)cc1S(=O)(=O)NC(C)C | 5%
54 | COc1ccc(CN2C(=O)c3cccnc3C2=O)cc1S(=O)(=O)N1CCCCC1C (stereo not drawn) | 12%

Reformatted with one line to a screen: part of the list above.
[53] COc1ccc(CNS(=O)(=O)c2cc(CN3C(=O)c4cccnc4C3=O)ccc2OC)cc1
[54] COc1ccc(CN2C(=O)c3cccnc3C2=O)cc1S(=O)(=O)N1CCCCC1C (stereo not drawn)

assay / compound | 53 | 54
Rango complex inh | -1% | 1%
Rango dissoc inh | -5% | 12%
gsp ag | 11µM* | 7.1µM*
gsp antag | 15% | 29%

Screening data deposited in PubChem BioAssay by National Center for Advancing Translational Sciences (NCATS).
